Measurements taken from patent US10821115B2, “Compounds that inhibit Mcl-1 protein” (priority 2017, dated 2020).

Amino acid sequences for entries named in this document (tags omitted). Residues count along the entry.
UniProt Q07820, 171-327: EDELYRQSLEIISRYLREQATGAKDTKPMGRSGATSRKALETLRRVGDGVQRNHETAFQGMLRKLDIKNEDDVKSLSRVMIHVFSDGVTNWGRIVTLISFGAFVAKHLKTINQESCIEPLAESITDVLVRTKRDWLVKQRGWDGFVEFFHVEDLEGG

Legend:
[1] = tested on: human multiple myeloma cell line, OPM-2; assay: Cell viability assay (OPM-2 10 FBS), CellTiter-Glo; format: cell-based; details: OPM-2, 16 h, read-out: OPM-2 10% FBS IC50 IP, OPM-2 cells, 10% FBS, 16 h, CellTiter-Glo
Protocol: Cell viability assay (OPM-2 10 FBS)
The human multiple myeloma cell line, OPM-2, was cultured in complete growth medium containing RPMI 1640 and 10% fetal bovine serum (FBS). Cells were seeded into 384-well plates at 3000 cells/well density in complete growth medium containing 10% FBS, and incubated for 16 h with serially diluted test compounds in a 37° C. incubator with 5% CO2. Cell viability was tested using CellTiter-Glo® assay (Promega, Madison, Wis.) according to the manufacturer recommendations. Luminescence was determined using an EnVision® Multilabel plate reader 25 min after the addition of detection reagent. IC50 values were then calculated with Xlfit using a logistical 4-parameter fit model in GraphPad Prism (GraphPad Software, San Diego, Calif.) or in Genedata Screener® (Genedata, Basel, Switzerland).

[2] = target: recombinant human Mcl-1 (residues 171-327) / Bim interaction (Homo sapiens (Human), UniProt Q07820); assay: biochemical; format: binding; details: read-out: Mcl-1 HTRF IC50

Compound | IC50 [1] [nM] | IC50 ([2]; TR-FRET, Mcl-1(171-327) / biotin-Bim (51-76)) [nM] | IC50 ([2]; 0.1 nM Mcl-1(171-327), 0.05 nM biotin-Bim (51-76)) [nM]
CO[C@@]1(c2cccnn2)/C=C/C[C@H](C)[C@@H](C)S(=O)(=O)NC(=O)c2ccc3c(c2)N(C[C@@H]2CC[C@H]21)C[C@@]1(CCCc2cc(Cl)ccc21)CO3 [Example 100004, (1 S,3′R,6′R,7′S,8′E,11′S, 12′R)-6-chloro-7′-methoxy-11′,12′-dimethyl-7′-(3-pyridazinyl)-3,4-dihydro-2H,15′H-spiro[naphthalene-1,22′-[20]oxa[13]thia[1,14]diazatetracyclo[14.7.2.0-3,6˜.0˜19,24˜]pentacosa[8,16,18,24]tetraen]-15′-one 13′,13′-dioxide] | 120 | 0.072 | –
(1 S,3′R,6′R,7′R,8′E,11′S,12′R)-6-chloro-7′-((9aS)-hexahydropyrazino[2,1-c][1,4]oxazin-8(1H)-ylmethyl)-7′-methoxy-12′-(2-methoxyethyl)-11′-methyl-3,4-dihydro-2H, 15′H-spiro[naphthalene-1,22′-[20]oxa[13]thia[1,14]diazatetracyclo[14.7.2.0-3,6˜.0˜19,24˜]pentacosa[8,16,18,24]tetraen]-15′-one 13′,13′-dioxide [Example 11] | – | – | 0.098

Like-named read-outs stand apart in the source and are kept apart here.
